# Entries after “also recorded” stand apart in the source; their conditions may differ.
# Protein sequences, listed by entry. Tags and fused reporters are not part of them.
# UniProt O94759, whole entry: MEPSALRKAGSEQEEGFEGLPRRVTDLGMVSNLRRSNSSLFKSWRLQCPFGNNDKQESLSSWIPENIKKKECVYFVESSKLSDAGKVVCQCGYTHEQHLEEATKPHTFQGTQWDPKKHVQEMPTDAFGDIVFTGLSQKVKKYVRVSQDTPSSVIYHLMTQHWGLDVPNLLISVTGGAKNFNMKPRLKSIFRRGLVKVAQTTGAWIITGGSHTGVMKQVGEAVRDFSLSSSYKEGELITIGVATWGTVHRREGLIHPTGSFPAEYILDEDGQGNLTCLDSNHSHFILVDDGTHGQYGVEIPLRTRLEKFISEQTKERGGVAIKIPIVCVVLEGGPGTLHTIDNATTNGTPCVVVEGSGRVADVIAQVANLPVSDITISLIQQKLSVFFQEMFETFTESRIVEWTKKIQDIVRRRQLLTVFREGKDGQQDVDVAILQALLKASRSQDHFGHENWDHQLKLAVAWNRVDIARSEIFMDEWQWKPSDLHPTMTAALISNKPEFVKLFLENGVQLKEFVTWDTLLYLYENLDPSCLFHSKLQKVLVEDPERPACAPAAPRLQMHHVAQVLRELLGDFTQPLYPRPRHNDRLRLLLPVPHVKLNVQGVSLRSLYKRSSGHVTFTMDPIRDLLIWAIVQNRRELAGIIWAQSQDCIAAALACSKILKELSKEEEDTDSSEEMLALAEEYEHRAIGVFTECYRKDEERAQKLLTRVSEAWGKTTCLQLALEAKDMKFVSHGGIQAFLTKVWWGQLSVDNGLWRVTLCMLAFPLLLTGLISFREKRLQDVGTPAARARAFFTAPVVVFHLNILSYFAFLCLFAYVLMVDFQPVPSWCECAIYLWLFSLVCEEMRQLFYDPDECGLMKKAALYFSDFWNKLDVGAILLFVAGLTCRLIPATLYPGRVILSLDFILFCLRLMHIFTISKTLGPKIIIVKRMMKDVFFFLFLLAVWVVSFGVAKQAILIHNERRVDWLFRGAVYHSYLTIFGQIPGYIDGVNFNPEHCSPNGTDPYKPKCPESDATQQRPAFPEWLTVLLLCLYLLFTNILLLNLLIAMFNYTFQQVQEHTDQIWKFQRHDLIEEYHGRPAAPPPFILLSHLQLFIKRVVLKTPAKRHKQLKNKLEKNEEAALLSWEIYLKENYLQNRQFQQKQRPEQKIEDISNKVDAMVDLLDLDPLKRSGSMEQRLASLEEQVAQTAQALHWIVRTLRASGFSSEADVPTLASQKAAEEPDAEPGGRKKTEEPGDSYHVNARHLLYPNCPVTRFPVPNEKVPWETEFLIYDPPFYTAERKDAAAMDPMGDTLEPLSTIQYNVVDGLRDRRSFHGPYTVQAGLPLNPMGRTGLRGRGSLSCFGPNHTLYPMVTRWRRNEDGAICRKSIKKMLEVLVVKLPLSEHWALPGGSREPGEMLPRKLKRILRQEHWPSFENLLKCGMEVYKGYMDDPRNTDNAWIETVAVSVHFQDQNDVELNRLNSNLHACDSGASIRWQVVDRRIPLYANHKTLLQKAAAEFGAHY
# Key:
# TRPM2 channels = target: T1, TRPM2 channels (Homo sapiens, UniProt O94759); assay: Whole-cell patch-clamp of ADPR-gated cation entry in TRPM2-expressing Jurkat T cells; assay type: cell-based; details: pipette with 0.3 mM ADPR plus 0.9 mM 8Br-ADPR (three-fold excess)
# T1 construct: endogenous in cells; host or cells: Jurkat T lymphocytes
# Experimental: Electrophysiology. Membrane currents were recorded in the whole-cell configuration of the patch-clamp technique (Hamill O. P. et al., 1981 Pflugers Arch 391:85-100). An EPC9 patch-clamp amplifier was used in conjunction with the PULSE stimulation and data acquisition software (HEKA Elektronik). The patch electrodes were made from 1.5 mm diameter borosilicate glass capillaries and filled with intracellular solution. Data were low-pass filtered at 1 kHz and compensated for both fast and slow capacity transients. Series resistance was compensated by 50-90%. All experiments were performed at room temperature with Jurkat T lymphocytes attached to high molecular weight poly-L-lysin. The pipette solution contained 145 mM K-glutamate, 8 mM NaCl, 1 mM MgCl2 and 10 mM EGTA, adjusted to pH 7.2 with KOH and to a free Ca^2+ concentration of 100 nM with CaCl2. In some experiments, the pipette solution additionally contained ADPR (0.3 mM) or ADPR (0.3 mM) plus 8Br-ADPR (0.9 mM). The external solution contained 145 mM NaCl, 2 mM MgCl2, 1 mM CaCl2, 2.8 mM KCl, 10 mM HEPES and 10 mM glucose, adjusted to pH 7.2 with NaOH. The cells were held at −60 mV and I-V relations were obtained every 20 sec using 250 ms voltage ramps from −100 to +100 mV.
# [1] = test system: mouse bone marrow neutrophils; assay: Oxidant (H2O2)-induced Ca2+ influx in bone marrow neutrophils; assay type: cell-based; details: 100 μM, 15 min, H2O2 100 μM
# Experimental: (§1) Ca^2+ mobilization assays. Bone marrow neutrophils (1×10^7/ml) and DCs (1×10^6/ml) were loaded with a mixture of Fluo-3 AM and Fura-Red AM as previously described (Partida-Sanchez, S. et al., 2001 Nature Medicine 7:1209-1216; Partida-Sanchez S. et al., 2004 Immunity 20:279-291). The cells were preincubated in media, 8Br-cADPR, 8Br-ADPR or 8Br-NAD^+ (100 μM each) for 15 minutes and then stimulated. The accumulation of intracellular free Ca^2+ was assessed by flow cytometry by measuring the fluorescence emission of Fluo-3 in the FL-1 channel and Fura-Red in the FL-3 channel over time. Data were analyzed using FlowJo 4.0 software (Tree Star). Relative intracellular free Ca^2+ levels are expressed as the ratio between Fluo-3 and Fura-Red mean fluorescence intensity.
# mouse DCs = assay: Ca2+ mobilization assay in chemokine-stimulated DCs; assay type: cell-based; details: 100 μM, 15 min, CXCL12 50 ng/ml
# Experimental: as §1
# [2] = test system: mouse bone marrow neutrophils; assay: Ca2+ mobilization assay in chemoattractant-stimulated bone marrow neutrophils (flow cytometry, Fluo-3/Fura-red); assay type: cell-based; details: 100 μM, 15 min
# Experimental: as §1
# [3] = test system: store-operated Ca^2+ channels (SOC); assay: Ca2+ mobilization assay, thapsigargin-induced store-operated Ca2+ entry in neutrophils and DCs; assay type: cell-based, mouse; details: 100 μM, 15 min preincubation, thapsigargin 1 μM
# Experimental: as §1
# human neutrophils = assay: Transwell chemotaxis assay, human peripheral blood neutrophils; assay type: cell-based; details: 100 μM, 15 min, A5 peptide 1 μM
# Experimental: (§2) Chemotaxis assays. Chemotaxis assays were performed as previously described (Partida-Sanchez, S. et al., 2001 Nature Medicine 7:1209-1216; Partida-Sanchez S. et al., 2004 Immunity 20:279-291). Briefly, cells were pretreated for 15 minutes with media 8Br-cADPR, 8Br-ADPR or 8Br-NAD^+ (100 μM each). Treated cells (1×10^6 neutrophils or 1×10^5 DCs) were added to the upper chamber of the transwell (3-μm for neutrophils or 5-μm for DCs) (Costar). After incubating the chambers for 45 min (neutrophils) or 90 min (DCs) at 37° C., the transmigrated cells were collected from the lower chamber, fixed, and counted on a flow cytometer. The results are expressed as the mean ±SD of the chemotaxis index (CI) for triplicate wells. The CI represents the fold-change in the number of untreated or inhibitor-pretreated cells that migrated in response to the chemoattractant divided by the basal migration of untreated or antagonist pretreated cells migrating in response to control medium.
# [4] = test system: mouse bone marrow neutrophils; assay: Transwell chemotaxis assay, mouse bone marrow neutrophils; assay type: cell-based
# Experimental: as §2
# [5] = HPLC analysis of catabolites after incubation with bone marrow neutrophils; assay type: in vitro ADME, mouse
# Experimental: HPLC analysis of catabolites produced by CD38-expressing cells. Neutrophils were incubated with 8Br-NAD^+ (500 μM), 8Br-cADPR (100 μM), or 8Br-ADPR (100 μM) for 0 (no cells in reaction) to 15 minutes at 37° C. The supernatants were collected after centrifugation, concentrated and flash frozen. Aliquots were analyzed by reversed-phase HPLC (Kontron Instruments) using a Multohyp BDS C18 column (250 mm×4.6 mm, particle size 5 μm, Chromatographie Service). Absorbance was measured at 270 nm using a UV detector (Kontron 432) and data were processed by the MT2 data acquisition system from Kontron Instruments. Peaks were identified by comparison to known standards and the area under each curve was quantified to determine relative amounts of each metabolite.
# [6] = test system: bone marrow-derived immature or TNFα-matured DCs; assay: Transwell chemotaxis assay, bone marrow-derived DCs; assay type: cell-based, mouse; details: 100 μM, 15 min pretreatment
# Experimental: as §2
substance,measurement,setting,value
8-bromo adenosine diphosphoribose [8Br-ADPR],effect on ADPR-induced cation entry (membrane current at -60 mV),TRPM2 channels,abrogated
same,effect on H2O2-induced Ca2+ influx in Cd38-/- neutrophils,[1]; Cd38-/-,did not block
same,effect on H2O2-induced Ca2+ influx in WT neutrophils,[1]; WT,did not block
same,effect on Ca2+ response of CXCL12-stimulated immature DCs,mouse DCs,also blocked
same,effect on intracellular Ca2+ release after IL-8,"[2]; IL-8 100 nM, Ca2+ free buffer (EGTA 2 mM)",had no effect
same,effect on IL-8 induced Ca2+ response,"[2]; IL-8 100 nM, Ca2+-containing media",neither compound had any effect
same,effect on intracellular Ca2+ release after fMLP,"[2]; fMLP 1 μM, Ca2+ free buffer (EGTA 2 mM)",had no effect
same,effect on extracellular Ca2+ influx in fMLP-stimulated WT neutrophils,"[2]; fMLP 1 μM, Ca2+-containing media, WT",significant reduction; also recorded: blocked
same,effect on Ca2+ influx in fMLP-stimulated Parp1-/- neutrophils,"[2]; fMLP 1 μM, Parp1-/-",blocked
same,effect on capacitative Ca2+ influx induced by thapsigargin,[3],had absolutely no effect
same,effect on migration of human neutrophils to FPRL1 ligand A5 peptide,human neutrophils,effectively inhibited
same,inhibition of cell migration to fMLP,"[4]; 2.5 μM 8Br-ADPR, 15 min, fMLP 1 μM",at least 50%
same,effect on chemotactic response of WT neutrophils to fMLP,"[4]; 100 μM, 15 min, fMLP 1 μM, 45 min, WT",efficiently inhibited; also recorded: significantly inhibited
same,effect on chemotactic response of Parp1-/- neutrophils to fMLP,"[4]; 100 μM, 15 min, fMLP 1 μM, Parp1-/-",significantly inhibited
same,effect on chemotactic response of neutrophils to IL-8,"[4]; 100 μM, IL-8 100 nM, 45 min",neither 8Br-ADPR nor 8Br-cADPR blocked
same,effect on chemotactic response of CD38KO (Cd38-/-) neutrophils to fMLP,"[4]; 15 min, fMLP 1 μM, CD38KO",no further inhibition; also recorded: did not further inhibit the response
same,8Br-cADPR in the preparation before or after incubation with neutrophils,[5]; before and 15 minutes after incubation,no 8Br-cADPR was detected
same,compound catabolized to 8Br-AMP after incubation with leukocytes,"[5]; over 15 minutes, mouse bone marrow neutrophils",< 1.5%
same,chemotactic response of TNFα-matured DCs to CCL21,[6],made poor chemotactic responses
same,chemotactic response of immature DCs to CXCL12,[6],made poor chemotactic responses

# — patent US20080114079A1, “TRPM2-specfic inhibitors” (priority 2006, published 2008)
